Literature values as cited in publication PMC5742115, “Pharmacophore Modeling and in Silico/in Vitro Screening for Human Cytochrome P450 11B1 and Cytochrome P450 11B2 Inhibitors” (Frontiers in Chemistry, 2017).

System: CYP11B2
Conditions: reported activity, supplementary Table 1; ref Ulmschneider et al., 2005b; cited from earlier work

Row | Structure (SMILES) | IC50 [nM]
1 | N#Cc1ccc2c(c1)CCC/C2=C/c1cnc[nH]1 [CHEMBL367483] | 22.7
2 | N#Cc1ccc2c(c1)CC/C2=C\c1cnc[nH]1 [CHEMBL177921] | 35.9
